Experimental data as given in article PMC3931943, “Extraction of tamoxifen and its metabolites from formalin-fixed, paraffin-embedded tissues: an innovative quantitation method using liquid chromatography and tandem mass spectrometry” (Cancer Chemotherapy and Pharmacology, 2014).

Settings: human, in vivo

Detection in FFPE tissue of tumor recurrent patients: not found
Substance: 4-hydroxy-tamoxifen [4-OH]
